Reference: patent US7772252B2, “Heterocyclic substituted carbonyl derivatives and their use as dopamine D3 receptor ligands” (Aventis Pharmaceuticals Inc., priority 2001, dated 2010)

Sequences of proteins named here, by UniProt entry; tags and fusion partners are left off.
UniProt P35462, whole entry: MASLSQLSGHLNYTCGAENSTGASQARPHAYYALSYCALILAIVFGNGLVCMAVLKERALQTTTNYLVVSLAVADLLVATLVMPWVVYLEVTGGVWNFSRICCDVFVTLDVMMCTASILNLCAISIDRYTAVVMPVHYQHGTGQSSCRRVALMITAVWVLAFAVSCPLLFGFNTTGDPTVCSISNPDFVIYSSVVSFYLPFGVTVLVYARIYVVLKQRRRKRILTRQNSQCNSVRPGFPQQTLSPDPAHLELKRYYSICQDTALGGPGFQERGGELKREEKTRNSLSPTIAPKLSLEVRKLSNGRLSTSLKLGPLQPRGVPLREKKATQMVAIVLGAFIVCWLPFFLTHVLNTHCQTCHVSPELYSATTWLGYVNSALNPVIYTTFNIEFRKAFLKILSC

Target: cloned human dopamine D3 receptors (Homo sapiens, UniProt P35462)
Test: [N-Methyl-3H]Spiroperidol binding to cloned human dopamine D3 receptors
Text: [N-Methyl-^3H]Spiroperidol Binding to Cloned Human Dopamine D3 Receptors
This assay measures the in vitro activity of compounds on cloned human dopamine (D3) receptors and predicts the direct dopamine-blocking properties of putative neuropsychiatric agents at human dopamine D3 receptors.
The D3 gene was isolated from a human striatal cDNA library (Stratagene). The gene was sequenced and sub-cloned into the expression vector RC/RSV (Invitrogen). CHO (Chinese Hamster Ovary) cells were stably transfected with 10 μg of the D3/RSV plasmid using the DOTAP method from Boehringer Mannheim and 72 clones that were G418 resistant were isolated. Using mRNA and binding displacement data a single high expressing clone was identified. This clone was then grown in large batches for the purpose of developing a 96 well format assay.
• 1. One plate (10 cm) with approximately 2-3 million D3 cells per plate is incubated with 1 ml of Trypsin-EDTA at room temperature for ˜2 min or until cells have lifted off plates. […]
A 200 μl sample membrane homogenate is added to 200 μl of 1% SDS, vortexed and allowed to stand for 5 min. Aliquots (25, 50 and 100 μl) of this mixture are assayed in duplicate following the standard Bio-Rad DC protein assay protocol (kit catalog number 500-0112) and using reagent S. Absorbance readings are made at 750 nm (note: the most accurate protein OD readings are between 0.1-0.5 units). […]

Ki (read-out: D3 Ki) [nM] | Ki (read-out: d3Ki) [nM] | SMILES
4.9 | – | O=C(NCCCc1cc[nH]c1)[C@@H]1C[C@H]1CN1CCN(c2nn(Cc3ccccc3)c3ccsc23)CC1
– | 37.2 | O=C(NC12CC3CC(CC(C3)C1)C2)[C@@H]1C[C@H]1CN1CCN(c2csc3cc(C(F)(F)F)ccc23)CC1 [826888]

Like-named read-outs stand apart in the source and are kept apart here.
